Assay results: US20220273673A1, “BONE-BINDING COMPOUNDS” (BRIGHAM YOUNG UNIVERSITY, priority 2019, published 2022)

Tested on: MC3T3-E1 cells
Test: Alkaline phosphatase activity assay (p-nitrophenyl phosphate) in osteoblasts
Type: cell-based
Conditions: 50 ng/ml rhBMP-2; osteogenic media
Procedure: To test whether BBA-1 retained any of the pro-osteogenic action of CSA-90, MC3T3-E1 cells were differentiated in osteogenic media with either 5 μM CSA-90 or BBA-1, with or without 50 ng/ml rhBMP-2. A p-nitrophenyl phosphate assay was performed for alkaline phosphatase activity (Sigma-Aldrich) and normalized to day-3 cells grown in osteogenic media and α-MEM media. Assays were performed in triplicate with two independent repeats.

B1: rhBMP-2: recombinant human bone morphogenetic protein-2 (protein, UniProt P12643 283-396, looked up)
Bone morphogenetic protein 2: QAKHKQRKRLKSSCKRHPLYVDFSDVGWNDWIVAPPGYHAFYCHGECPFPLADHLNSTNHAIVQTLVNSVNSKIPKACCVPTELSAISMLYLDENEKVVLKNYQDMVVEGCGCR
- Alkaline phosphatase expression, rhBMP-2: increased alkaline phosphatase expression
